Measured values as given in US20150260731A1.

Legend:
[1] = biological target: anti-ADDL antibody 19.3; assay: competitive ELISA: Aβ oligomers titrated in solution to compete for 19.3 (4 nM) on a plate coated with Aβ1-40 monomer (100 pmol/well) (FIG. 5B)
[2] = biological target: anti-ADDL antibody 19.3; assay: competitive ELISA: Aβ1-40 monomer titrated in solution to remove 19.3 (2 nM) from a plate coated with Aβ oligomers (50 pmol/well) (FIG. 5B)

Row | EC50 [1] [nM] | EC50 [2] [nM] | Substance
1 | 8.7 | – | amyloid β-derived diffusible ligands (ADDLs), oligomers of Aβ1-42 (peptide)
2 | – | 5500 | Aβ1-40 monomer (peptide)
